The text below walks through data of ChEMBL document CHEMBL3046459, “Structural insights for 3H-1, -2, -4 triazolinones as angiotensin II receptor antagonists using QSAR techniques” (Med Chem Res, 2010).

Protein sequences, listed by entry. Tags and fused reporters are not part of them.
UniProt P34976, whole entry: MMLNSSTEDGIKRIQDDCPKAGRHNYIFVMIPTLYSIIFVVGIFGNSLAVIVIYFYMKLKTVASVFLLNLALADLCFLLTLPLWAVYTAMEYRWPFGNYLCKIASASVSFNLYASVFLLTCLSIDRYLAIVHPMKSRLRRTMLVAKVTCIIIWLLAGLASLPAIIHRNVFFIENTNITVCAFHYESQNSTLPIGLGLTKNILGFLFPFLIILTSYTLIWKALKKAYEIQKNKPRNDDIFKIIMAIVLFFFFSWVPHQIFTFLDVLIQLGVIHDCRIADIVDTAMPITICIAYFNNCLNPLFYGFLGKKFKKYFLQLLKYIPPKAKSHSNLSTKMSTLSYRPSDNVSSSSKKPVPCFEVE

Structures are written as SMILES.

This assay has as its target Type-1 angiotensin II receptor (Oryctolagus cuniculus) (UniProt P34976). The experiment in a line: Antagonist activity at angiotensin 2 type-1 receptor in Oryctolagus cuniculus (rabbit) aorta in presence of bovine serum albumin. Also on record: unit not given here.

As for `CCCCc1nn(-c2ccccc2)c(=O)n1Cc1ccc(-c2ccccc2-c2nn[nH]n2)cc1`, the logIC50 is 1.34.
